Test results taken from article PMC2946453 (Journal of pharmaceutical and biomedical analysis, 2010).

Tested on: CCCCC/C=C\C/C=C\C/C=C\C/C=C\CCCC(=O)O
Assay: purified protein, by the assay type
Details: pH 8.0; 37.0 °C

ovine COX-2 (Ovis aries)
Km: 1.94 ± 0.39 µM
